Results taken from US20140294821A1.
Values belong to the substance of their own block, whether it stands above or below them.

What was measured:
[1] = biological target: human von Willebrand factor, FVIII-free, plasma derived (human) (UniProt P04275); experiment: SPR (BIAcore), hvWf as ligand, FVIII protein as analyte, N=5
[2] = biological target: human von Willebrand factor, FVIII-free, plasma derived (human) (UniProt P04275); experiment: cell-based or functional assay
[3] = biological target: human von Willebrand factor, FVIII-free, plasma derived (human) (UniProt P04275); experiment: SPR (BIAcore), binding to vWF
[4] = biological target: human von Willebrand factor, FVIII-free, plasma derived (human) (UniProt P04275); experiment: SPR (BIAcore), single-cycle kinetics 0.13-5.0 nM, plasma derived human vWF immobilized by amine coupling, 1:1 model, N=6
[5] = biological target: rFVIIIFc (recombinant B-domain deleted human FVIII-Fc monomer hybrid), drug substance (human) (UniProt P00451); experiment: cell-based or functional assay
[6] = biological target: rBDD FVIII (recombinant B-domain deleted FVIII lacking Fc moieties) (human) (UniProt P00451); experiment: cell-based or functional assay
[7] = biological target: single chain rFVIIIFc (purified non-processed isoform of rFVIIIFc) (human) [IgG part: P0DOX5]; experiment: cell-based or functional assay

Kd [1]: 1.28 nM | koff [1]: 0.00109 s⁻¹ | kon [1]: 866000 M⁻¹ s⁻¹ | Coagulation (aPTT) Specific Activity, FVIII and vWF depleted plasma (vWF absent) [2]: 13600 IU/mg | Coagulation (aPTT) Specific Activity, FVIII-depleted plasma (vWF present) [2]: 3110 IU/mg | Coagulation (aPTT) Specific Activity, FVIII/VWF-depleted plasma supplemented with human VWF [2]: 3130 IU/mg | decrease in one-stage clotting assay (APTT) activity in plasma with normal VWF level [2]: 60% | fold of KD against BDD FVIII alone [3]: 2 fold | Kd [4]: 0.31 nM | koff [4]: 0.00084 s⁻¹ | kon [4]: 2.7e+06 M⁻¹ s⁻¹
Substance: single chain rFVIIIFc (purified non-processed isoform of rFVIIIFc) (from UniProt P0DOX5 223-449) (Fc fusion)

thrombin half maximal effective concentration (EC50) for release from immobilized vWF, SPR, 25° C. [5]: 3.9 U/mL | thrombin half maximal effective concentration (EC50) for release from immobilized vWF, SPR, 37° C. [5]: 4.8 U/mL | α-thrombin EC50 for release of FVIII from immobilized VWF, optical biosensor [5]: 3.7 U/mL | thrombin half maximal effective concentration (EC50) for release from immobilized vWF, SPR, 25° C. [6]: 3.3 U/mL | thrombin half maximal effective concentration (EC50) for release from immobilized vWF, SPR, 37° C. [6]: 4 U/mL | α-thrombin EC50 for release of FVIII from immobilized VWF, optical biosensor [6]: 3.2 U/mL | fold of thrombin EC50 for release from vWF against rFVIIIFc [7]: 3 fold | fold of α-thrombin EC50 for release from VWF against rFVIIIFc and rBDD-FVIII [7]: > 3 fold | thrombin half maximal effective concentration (EC50) for release from immobilized vWF, SPR, 25° C. [7]: 12 U/mL | thrombin half maximal effective concentration (EC50) for release from immobilized vWF, SPR, 37° C. [7]: 15 U/mL | α-thrombin EC50 for release of FVIII from immobilized VWF, optical biosensor [7]: 11.7 U/mL
Substance: human α-thrombin (from UniProt P00734 328-622) (enzyme)
